PMC7547737

B1: FLAG-tagged wt AKT1 [not stated] / Ser/Thr-protein phosphatase 2A (PP2A)-catalytic subunit beta isoform [human (endogenous in SK-Br3)] (parent)
chain 1: MSDVAIVKEGWLHKRGEYIKTWRPRYFLLKNDGTFIGYKERPQDVDQREAPLNNFSVAQCQLMKTERPRPNTFIIRCLQWTTVIERTFHVETPEEREEWTTAIQTVADGLKKQEEEEMDFRSGSPSDNSGAEEMEVSLAKPKHRVTMNEFEYLKLLGKGTFGKVILVKEKATGRYYAMKILKKEVIVAKDEVAHTLTENRVLQNSRHPFLTALKYSFQTHDRLCFVMEYANGGELFFHLSRERVFSEDRARFYGAEIVSALDYLHSEKNVVYRDLKLENLMLDKDGHIKITDFGLCKEGIKDGATMKTFCGTPEYLAPEVLEDNDYGRAVDWWGLGVVMYEMMCGRLPFYNQDHEKLFELILMEEIRFPRTLGPEAKSLLSGLLKKDPKQRLGGGSEDAKEIMQHRFFAGIVWQHVYEKKLSPPFKPQVTSETDTRYFDEEFTAQMITITPPDQDDSMECVDSERRPHFPQFSYSASGTA
chain 2: MDDKAFTKELDQWVEQLNECKQLNENQVRTLCEKAKEILTKESNVQEVRCPVTVCGDVHGQFHDLMELFRIGGKSPDTNYLFMGDYVDRGYYSVETVTLLVALKVRYPERITILRGNHESRQITQVYGFYDECLRKYGNANVWKYFTDLFDYLPLTALVDGQIFCLHGGLSPSIDTLDHIRALDRLQEVPHEGPMCDLLWSDPDDRGGWGISPRGAGYTFGQDISETFNHANGLTLVSRAHQLVMEGYNWCHDRNVVTIFSAPNYCYRCGNQAAIMELDDTLKYSFLQFDPAPRRGEPHVTRRTPDYFL

Variants of: B1
Experiment: co-immunoprecipitation (anti-FLAG IP, western blot quantification)
Conditions: with Ser/Thr-protein phosphatase 2A (PP2A)-catalytic subunit beta isoform [human (endogenous in SK-Br3)], SK-Br3 cells, serum-starved 20 min with 10 μM U0126, 10 μg/ml TZ for 20 min, read off a plot
[1] = individual experiment (grey point)
[2] = individual experiment (white point)

Variant	percent of parent [1]	percent of parent [2]
chain 1 P313A	140 % of wt	46 % of wt
chain 1 P313A P318A	58 % of wt	31 % of wt
chain 1 P318A	72 % of wt	44 % of wt
